The data set is described as follows: Animal model studies, summary (oral absorption, therapeutic index). Conditions: summary statement.

This is an account of results in patent US8501778B2, “Aralkyl piperidine derivatives and their uses as antalgic or ataractic agent” (priority 2008, dated 2013).

Each structure is given as a SMILES string.

For `COc1ccc(CN2CCC(O)(CC(=O)c3ccccc3)CC2)cc1.Cl` [III-15, N-p-methoxybenzyl-4-benzoylmethyl-4-piperidinol hydrochloride], the therapeutic index result is on record as “high”.
